This is an account of results in patent publication US20140294863A1, “SERUM ALBUMIN BINDING PEPTIDES FOR TUMOR TARGETING” (GENENTECH, INC., priority 2002, published 2014).

Data set [1] concerns albumin and HER2. In words: Simultaneous binding to immobilized albumin and biotinylated HER2. Conditions: FIG. 12. On the procedure: To further characterize the binding of the fusion constructs, the HER2 antigen was labeled with biotin. Briefly, the fusion construct was added to albumin coated microtiter plates. Biotinylated HER2 antigen was added to the solution, and incubated. The plates were washed and analyzed for bound biotin.

The nature of data set [2]: Pharmacokinetics of AB.Fab variants in rabbits (HER2 Binding ELISA). The class given is in vivo, rabbit. A general note: ELISA stands for enzyme-linked immunosorbent assay.
Data set [3] can be described thus: Pharmacokinetics of AB.Fab variants in mice (HER2 Binding ELISA). It is filed as in vivo. The settings on record: Mouse, group mean profile. On the procedure: All pharmacokinetic (PK) studies were conducted according to protocols approved by the Institutional Animal Care and Use Committee at Genentech, Inc. Sprague Dawley rats were supplied by Charles River Laboratories (Hollister, Calif. USA). New Zealand White (NWZ) rabbits were supplied by Myrtle's Rabbitry (Thompson Station, Tenn. USA). BALB-c mice were supplied by Charles River (Hollister, Calif. USA).
Over the course of 7 days serum was collected in 3 mice per time point by retro-orbital bleed or cardiac stick.
All serum and plasma samples were assayed for 4D5-Fab or AB.Fab variant concentrations using a HER2 Binding ELISA. Briefly, samples were added to microtiter wells coated with HER2ecd and incubated for 2 hours at room temperature. The wells were washed, and goat anti-huFab-HRP was added and incubated for 1 hour at room temperature. Unbound HRP was removed by washing and enzyme substrate was added to detect bound HRP. […] Concentrations of AB.Fab were extrapolated by comparison to a standard curve of the dosed molecule.
In mice, a group mean serum concentration versus time profile was determined, producing one estimate for pharmacokinetic parameters for each AB.Fab dosing group. […] AB.Fab variant 4D5-H8 was fit to a one compartment model and estimates for the PK parameters of AUC, CL, Half-Life (t1/2) and V1 were determined using WinNonlin® software (Pharsight, Inc., supra).

The AUC is the area under the concentration-time curve, a measure of exposure. Read a high AUC as high exposure. A word on the Vss: it is the apparent volume that relates the amount in the body to the concentration in plasma or blood. Regarding “Fab4D5: anti-HER2 Fab fragment without albumin binding peptide; the Fab portion of Herceptin (trastuzumab)”, the “simultaneous binding of immobilized albumin and biotinylated HER2” value in data set [1] is given as “failed to bind albumin”. In data set [2] (0.5 mg/kg IV bolus), the AUC in rabbits came out at 8750 ± 1050 ng·h/mL and the clearance in rabbits is 1.01 mL/min/kg. For the same substance, in data set [2] (Rabbit, group mean), the AUC was 8750 ± 1050 ng·h/mL, the CL was found to be 1.01 ± 0.123 mL/min/kg, the V1 is 0.0517 ± 0.00107 L/kg and the Vss was determined as 0.122 ± 0.00557 L/kg. In data set [2] (Rabbit, group mean), the t1/2β was found to be 5.98 ± 0.209 h. In data set [3], this substance returned an AUC of 20900 ng·h/mL, a CL of 3.98 mL/min/kg, a V1 of 0.0368 L/kg and a Vss of 0.0686 L/kg. For the same substance, the t1/2β in data set [3] (4D5-H8 fit to one-compartment model (one half life estimate)) is 1.28 h.
